Values of other authors as cited in paper PMC7406630, “A new ^68Ga-labeled somatostatin analog containing two iodo-amino acids for dual somatostatin receptor subtype 2 and 5 targeting” (EJNMMI Research, 2020).

Test system: SST2
Conditions: read-out: IC50 for SST2; cited from earlier work

CC(C)[C@@H]1NC(=O)[C@H](CCCCN)NC(=O)[C@@H](Cc2c[nH]c3ccccc23)NC(=O)[C@H](Cc2ccc(O)c(I)c2)NC(=O)[C@@H](NC(=O)[C@H](N)Cc2ccc(N)c(I)c2)CSSC[C@@H](C(=O)N[C@H](C(N)=O)[C@@H](C)O)NC1=O
IC50: 0.6 nM
